Broadly, the Ki is the dissociation constant of the complex between target and ligand, obtained from inhibition or displacement.

Our source for the Ki values is ChEMBL document CHEMBL1130526, “Amide surrogates of matrix metalloproteinase inhibitors: Urea and sulfonamide mimics” (Bioorg Med Chem Lett, 1997).

In this test the target is T1, Interstitial collagenase (Homo sapiens, UniProt P03956).
T1 sequence (P03956 whole entry): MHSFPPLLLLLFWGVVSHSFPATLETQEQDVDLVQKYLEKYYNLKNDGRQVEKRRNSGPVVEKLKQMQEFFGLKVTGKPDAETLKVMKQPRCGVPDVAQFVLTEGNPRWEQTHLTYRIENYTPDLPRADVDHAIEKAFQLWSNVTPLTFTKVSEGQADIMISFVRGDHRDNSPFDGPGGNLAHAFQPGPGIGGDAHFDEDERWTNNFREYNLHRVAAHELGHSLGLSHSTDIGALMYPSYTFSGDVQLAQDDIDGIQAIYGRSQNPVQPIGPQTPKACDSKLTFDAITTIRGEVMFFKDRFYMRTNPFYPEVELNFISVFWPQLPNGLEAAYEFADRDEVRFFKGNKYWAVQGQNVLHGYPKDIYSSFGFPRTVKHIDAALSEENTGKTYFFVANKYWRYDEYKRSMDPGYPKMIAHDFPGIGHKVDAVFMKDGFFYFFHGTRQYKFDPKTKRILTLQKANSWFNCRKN
The test is described as follows: Inhibition of Matrix metalloprotease-1 (MMP-1).

`CNC(=O)[C@H](Cc1ccc(OC)cc1)NC(=O)[C@@H](CC(=O)NO)CC(C)C` gave a Ki of under 10 nM.
